From PubChem
GIV Gai3 FP: inhibitors of GIV peptide binding to Galpha-i3, primary screen, biochemical, fluorescence polarization, FITC-GIV GBA peptide, rat Galphai3; 90 min; stronger effect = lower value; scaled: aluminum fluoride 0%, vehicle 100%; percent of control (FP), % (no concentration beside the values); 210,000 tested, 0.42% active; AID 1224905, 2016;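 active = replicate mean at 85% of control or lower, very high polarization wells dropped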;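 note: wells of about 15 µL received 100 nL stock; the first replicate is given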
HCMV NEC inh: inhibitors of HCMV UL50-UL53 interaction, biochemical, HTRF; AID 1918969, 2023; normalized percent inhibition; HCMV UL50-UL53 nuclear egress complex (human cytomegalovirus); 0.15% of 190,000 active; inhibition, % (test concentration not listed); in the data active = inhibition above about 27%, passing the limit was not always enough
* marks the source's active call; other numbers are inactive results; nt = no result. In the library only some 0.46% were active in any assay of this set; here they are far more common.

COc1ccc(/C=c2/sc3nc(=O)cnn3c2=O)cc1
- GIV Gai3 FP: 110
- HCMV NEC inh: nt
O=C(NC1CCN(Cc2ccccc2)CC1)C1CCN(c2ccc(-c3ccccc3)nn2)CC1
- GIV Gai3 FP: 106
- HCMV NEC inh: 29*
O=C(NC1CCCC1)C1CCN(c2ccc(-c3ccccc3)nn2)CC1
- GIV Gai3 FP: 105
- HCMV NEC inh: -25
Cc1cc2nc(CN3CCCc4ccccc43)cc(=O)n2o1
- GIV Gai3 FP: 75*
- HCMV NEC inh: -60
Cc1cc2nc(COc3ccccc3)cc(=O)n2o1
- GIV Gai3 FP: 99
- HCMV NEC inh: -5
Cc1c(N2C(=O)/C(=C/c3ccc(Br)cc3)SC2=S)c(=O)n(-c2ccccc2)n1C
- GIV Gai3 FP: 104
- HCMV NEC inh: nt
CN(C)/C=C1\SC(=S)N(c2ccc(Br)cc2)C1=O
- GIV Gai3 FP: -65*
- HCMV NEC inh: -104
CN1/C(=C/C=C/c2oc3ccccc3[n+]2C)Oc2ccccc21
- GIV Gai3 FP: -5.9*
- HCMV NEC inh: nt
Cn1c(=O)c2[nH]c(SCC(=O)C(C)(C)C)nc2n(C)c1=O
- GIV Gai3 FP: nt
- HCMV NEC inh: -11
CC(Sc1nc2c([nH]1)c(=O)n(C)c(=O)n2C)C(=O)O (configuration not stated)
- GIV Gai3 FP: 85*
- HCMV NEC inh: -11

CCOC(=O)c1c2c3c(cccc3[nH]c1=O)C(=O)c1ccccc1-2
- GIV Gai3 FP: nt
- HCMV NEC inh: -53
Cc1ccc2c3c(c(N)c(=O)[nH]c13)-c1ccccc1C2=O
- GIV Gai3 FP: 76*
- HCMV NEC inh: nt
COC(=O)c1cc(NC(=O)c2cnn3c(C(F)(F)F)cc(-c4ccc(C)cc4)nc23)cc(C(=O)OC)c1
- GIV Gai3 FP: 110
- HCMV NEC inh: nt
CC1CN(c2ccc(C(F)(F)F)cn2)CC(C)O1 (configuration not stated)
- GIV Gai3 FP: nt
- HCMV NEC inh: -24
CC1=CS/C(=C(/C#N)C(N)=O)N1c1ccccc1
- GIV Gai3 FP: 104
- HCMV NEC inh: -11
N#C/C(C(=O)c1ccccc1)=C1/SC=C(N)N1c1ccccc1
- GIV Gai3 FP: -51*
- HCMV NEC inh: -26
O=C(CSc1ccc2nnc(-c3ccccc3)n2n1)NC1CCCC1
- GIV Gai3 FP: 102
- HCMV NEC inh: 34*
NC(=O)CSc1ccc2nnc(-c3ccccc3)n2n1
- GIV Gai3 FP: nt
- HCMV NEC inh: -10
COc1cc2[nH]c(=O)n(/N=C/c3ccc(O)c(Br)c3)c(=O)c2cc1OC
- GIV Gai3 FP: nt
- HCMV NEC inh: 0
COc1cc(Br)cc(C=Nc2cccc(-c3nc4ccccc4o3)c2)c1O
- GIV Gai3 FP: 107
- HCMV NEC inh: nt

O=C(O)C(Cc1ccccc1)N1C(=O)/C(=C/C=C/c2ccco2)SC1=S (configuration not stated)
- GIV Gai3 FP: 121
- HCMV NEC inh: 70*
O=C1S/C(=C\C=C\c2ccco2)C(=O)N1c1ccccc1
- GIV Gai3 FP: 115
- HCMV NEC inh: -23
O=C(CO/N=C/c1cccs1)N1CCCc2ccccc21
- GIV Gai3 FP: nt
- HCMV NEC inh: -60
Cc1c(N=C/C=C2\N(C)c3ccccc3C2(C)C)c(=O)n(-c2ccccc2)n1C
- GIV Gai3 FP: nt
- HCMV NEC inh: -41
CN1/C(=C\C=C2\C(=O)Oc3ccccc3C2=O)C(C)(C)c2ccccc21
- GIV Gai3 FP: -32*
- HCMV NEC inh: nt
O=C(COC(=O)c1ccc2c(=O)n3c(nc2c1)CCCCC3)Nc1ccc2c(c1)OCCO2
- GIV Gai3 FP: nt
- HCMV NEC inh: -32
O=C(Nc1nc2c(ncn2C(CO)OC(CO)CO)c(=O)[nH]1)c1ccccc1 (configuration not stated)
- GIV Gai3 FP: 98
- HCMV NEC inh: -17
CCN1/C(=C/C=C2\SC(=S)N(C)C2=O)Oc2ccccc21
- GIV Gai3 FP: 162
- HCMV NEC inh: -50
CCCN1C(=O)/C(=C/C=C2/Oc3ccccc3N2CCC(=O)O)N(CCO)C1=S
- GIV Gai3 FP: -18*
- HCMV NEC inh: nt
Brc1ccc(CNc2ccc3cn[nH]c3c2)s1
- GIV Gai3 FP: 116
- HCMV NEC inh: 56*

COc1cc(OC)c(CNc2ccc3cn[nH]c3c2)cc1Br
- GIV Gai3 FP: 111
- HCMV NEC inh: -8
Cc1cc(S(=O)(=O)Nc2ccc(N3CCCS3(=O)=O)cc2)ccc1F
- GIV Gai3 FP: 100
- HCMV NEC inh: -27
CCN1C(=O)/C(=C/c2c(NC(C)C)nc3ccccn3c2=O)SC1=S
- GIV Gai3 FP: 293
- HCMV NEC inh: -13
O=C1/C(=C/c2c(NCc3ccco3)nc3ccccn3c2=O)SC(=S)N1C1CCCCC1
- GIV Gai3 FP: 109
- HCMV NEC inh: nt
C=CCN1C(=O)/C(=C/c2c(NCC)nc3ccccn3c2=O)SC1=S
- GIV Gai3 FP: -33*
- HCMV NEC inh: nt
C=CCN1C(=O)/C(=C/c2c(NCc3ccco3)nc3ccccn3c2=O)SC1=S
- GIV Gai3 FP: -83*
- HCMV NEC inh: -14
CCNc1nc2ccccn2c(=O)c1/C=C1\SC(=S)N(Cc2ccco2)C1=O
- GIV Gai3 FP: -75*
- HCMV NEC inh: -11
COc1ccc(CCN2C(=O)/C(=C/c3c(NCc4ccccc4)nc4ccccn4c3=O)SC2=S)cc1OC
- GIV Gai3 FP: 139
- HCMV NEC inh: nt
CSc1nnc(C2CCCN2Cc2cccnc2)n1C (configuration not stated)
- GIV Gai3 FP: 102
- HCMV NEC inh: -10
O=c1[nH]c(O)c(N=Nc2ccccc2)s1
- GIV Gai3 FP: 104
- HCMV NEC inh: 0

O=C(O)c1cc(N2C(=O)C3C4C=CC(C4)C3C2=O)cc(N2C(=O)C3C4C=CC(C4)C3C2=O)c1 (configuration not stated)
- GIV Gai3 FP: 108
- HCMV NEC inh: -14
COc1ccc(Br)cc1/C=C1/N=C(c2ccc(OC)c(OC)c2)OC1=O
- GIV Gai3 FP: -12*
- HCMV NEC inh: nt
COc1cc(OC)c(OC)cc1/C=C1\N=C(c2cccc(Br)c2)OC1=O
- GIV Gai3 FP: 172
- HCMV NEC inh: nt
COc1ccc(Br)cc1/C=C1\N=C(c2cc(OC)c(OC)c(OC)c2)OC1=O
- GIV Gai3 FP: 108
- HCMV NEC inh: nt
COc1cc(OC)c(OC)cc1/C=C1\N=C(c2cncc(Br)c2)OC1=O
- GIV Gai3 FP: -8.4*
- HCMV NEC inh: nt
O=C(O)CN(Cc1ccccc1)S(=O)(=O)/C=C/c1ccccc1
- GIV Gai3 FP: nt
- HCMV NEC inh: -16
Cc1ccccc1C(=O)N1CCC(C(=O)N2C(=O)c3cccc(N)c3C2=O)CC1
- GIV Gai3 FP: nt
- HCMV NEC inh: -96

3 of the compounds above, with bars between the fields:
SMILES | GIV Gai3 FP | HCMV NEC inh
Cc1ccccc1C(=O)N1CCC(C(=O)N2C(=O)c3cccc(N)c3C2=O)CC1 | nt | -96
O=C(O)c1cc(N2C(=O)C3C4C=CC(C4)C3C2=O)cc(N2C(=O)C3C4C=CC(C4)C3C2=O)c1 (configuration not stated) | 108 | -14
COc1ccc(Br)cc1/C=C1/N=C(c2ccc(OC)c(OC)c2)OC1=O | -12* | nt
